The experiment has as its system SJSA-1 xenograft tumors. Description: In vivo efficacy, SJSA-1 xenograft model (tumor volume). Conditions: oral once per day 2-3 weeks.

Regarding `CC(C)(C)C[C@H]1N[C@@H](C(=O)N[C@H]2C[C@@H](O)C2)[C@H](c2cccc(Cl)c2F)[C@@]12C(=O)Nc1cc(Cl)ccc12` (stereo in doubt) [MI-519-63], the “in vivo efficacy (in words)” value is given as “good in vivo efficacy”.
Take `CC(C)(C)C[C@H]1N[C@@H](C(=O)N[C@H]2C[C@@](C)(O)C2)[C@H](c2cccc(Cl)c2F)[C@@]12C(=O)Nc1cc(Cl)ccc12` [MI-519-64]: the “in vivo efficacy (in words)” value is on record as “good in vivo efficacy”.

Source of the values: patent US9079913B2, “Spiro-oxindole MDM2 antagonists” (The Regents of the University of Michigan, priority 2009, dated 2015).
